Assays:
[1] = biological target: WRN protein (AA N517-P1238) (Homo sapiens, UniProt Q14191); assay: In vitro WRN enzymatic activity assay (ADP-Glo ATPase assay); conditions: read-out: ADP-Glo; 10 nM WRN enzyme, 3 hours pre-incubation at 25°C, ssDNA substrate
[2] = Pharmacokinetics in balb/c nude mice (IV and PO); conditions: for F: 10 mg/kg (vs IV 1 mg/kg)
SW48 (CRC, MSI) = assay: Cell proliferation inhibition assay (CellTiter-Glo), SW48; conditions: read-out: SW48 (CRC, MSI), 120 hours
SW620 (CRC, MSS) = assay: Cell proliferation inhibition assay (CellTiter-Glo), SW620; conditions: read-out: SW620 (CRC, MSS), 120 hours
HCT116 (WRN-KO) = assay: Cell proliferation inhibition assay (CellTiter-Glo), HCT116 WRN-KO; conditions: read-out: HCT116 (WRN-KO), 120 hours
[3] = Pharmacokinetics in NOD SCID mice; conditions: PO, 20 mg/kg

The chains behind the UniProt entries cited, without tags or fusion partners. Residues count along the entry.
UniProt Q14191, 517-1238 limits assumed: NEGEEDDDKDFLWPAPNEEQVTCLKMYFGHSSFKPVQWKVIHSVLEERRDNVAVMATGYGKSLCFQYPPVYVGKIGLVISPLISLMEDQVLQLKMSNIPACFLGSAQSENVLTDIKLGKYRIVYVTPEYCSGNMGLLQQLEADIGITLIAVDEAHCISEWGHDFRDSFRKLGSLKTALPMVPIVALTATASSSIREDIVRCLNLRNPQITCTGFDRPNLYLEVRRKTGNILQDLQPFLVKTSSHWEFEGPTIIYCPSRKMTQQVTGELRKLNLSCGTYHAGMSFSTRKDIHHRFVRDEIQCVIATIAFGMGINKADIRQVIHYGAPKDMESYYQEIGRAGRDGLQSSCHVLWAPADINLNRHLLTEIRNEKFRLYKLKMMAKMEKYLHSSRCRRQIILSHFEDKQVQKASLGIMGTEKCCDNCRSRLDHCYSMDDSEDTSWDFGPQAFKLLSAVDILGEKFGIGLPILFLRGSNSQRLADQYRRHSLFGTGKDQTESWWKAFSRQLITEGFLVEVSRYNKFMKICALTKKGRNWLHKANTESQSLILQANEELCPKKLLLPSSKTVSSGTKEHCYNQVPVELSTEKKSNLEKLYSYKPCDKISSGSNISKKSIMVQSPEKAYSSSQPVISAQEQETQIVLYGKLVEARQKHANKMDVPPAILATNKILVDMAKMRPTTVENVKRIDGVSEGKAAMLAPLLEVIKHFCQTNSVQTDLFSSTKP

| SMILES | IC50 [1] [nM] | AUC ([2]; IV, 1 mg/kg) [ng·h/mL] | T1/2 ([2]; IV, 1 mg/kg) [h] | AUC ([2]; PO, 10 mg/kg) [ng·h/mL] | Cmax ([2]; PO, 10 mg/kg) [ng/mL] | F ([2]; PO) [%] | IC50 (SW48 (CRC, MSI)) [nM] | IC50 (SW620 (CRC, MSS)) [nM] | IC50 (HCT116 (WRN-KO)) [nM] | AUC [3] [ng·h/mL] | Cmax [3] [ng/mL] |
| --- | --- | --- | --- | --- | --- | --- | --- | --- | --- | --- | --- |
| CCc1c(N2CCN(C(=O)c3ncnc(C)c3O)CC2)c(=O)n2nc(C3=CCCCOC3)nc2n1CC(=O)Nc1ccc(C(F)(F)F)cc1Cl | 2.76 | 1201 | 1.34 | 4201 | 1264 | 33.8 | – | – | – | – | – |
| CCC(=O)N1CC=C(c2nc3n(CC(=O)Nc4ccc(C(F)(F)F)cc4Cl)c(CC)c(N4CCN(C(=O)c5ncnc(C)c5O)CC4)c(=O)n3n2)CC1 | 10.1 | – | – | – | – | – | 30 | > 10000 | > 10000 | – | – |
| [2H]C1([2H])CCC(c2nc3n(CC(=O)Nc4cc(C(F)(F)F)c(C)s4)c(CC)c(N4CCN(C(=O)c5ncnc(C)c5O)CC4)c(=O)n3n2)=CCO1 | 1.64 | 1349 | 1.03 | 1358 | 1153 | 10.1 | 83.2 | > 10000 | – | – | – |
| CCc1c(N2CCN(C(=O)c3ncnc(C)c3O)CC2)c(=O)n2nc(C3=CCOCC3)nc2n1CC(=O)Nc1ccc(C(F)(F)F)cc1Cl | – | – | – | – | – | – | – | – | – | 24247 | 7557 |
| [2H]C1([2H])CCC(c2nc3n(CC(=O)Nc4ccc(C(F)(F)F)cc4Cl)c(CC)c(N4CCN(C(=O)c5ncnc(C)c5O)CC4)c(=O)n3n2)=CCO1 | 3.36 | 2144 | 1.33 | 11178 | 5407 | 53.0 | 34.1 | > 10000 | – | 48526 | 8547 |
| CCc1c(N2CCN(C(=O)c3ncnc(C)c3O)CC2)c(=O)n2nc(C3=CCN(C(=O)N(C(C)C)C(C)C)CC3)nc2n1CC(=O)Nc1ccc(C(F)(F)F)cc1Cl | 6.86 | – | – | – | – | – | 48.3 | > 10000 | – | – | – |
| CCc1c(N2CCN(C(=O)c3ncnc(C)c3O)CC2)c(=O)n2nc(C3=CCC(c4ncc(C)s4)CC3)nc2n1CC(=O)Nc1ccc(C(F)(F)F)cc1Cl (racemic) | 5.3 | – | – | – | – | – | 92.7 | > 10000 | – | – | – |
| [2H]C1([2H])CCC(c2nc3n4c(c(N5CCN(C(=O)c6ncnc(C)c6O)CC5)c(=O)n3n2)C(C)CC4C(=O)Nc2scc(C(F)(F)F)c2C)=CCO1 (single isomer, unassigned) [307-P4] | 1.13 | – | – | – | – | – | 9.33 | > 10000 | – | – | – |
| CCc1c(N2CCN(C(=O)c3ncnc(C)c3O)CC2)c(=O)n2nc(-c3ccc4occc4c3)nc2n1CC(=O)Nc1ccc(C(F)(F)F)cc1Cl | 4.3 | – | – | – | – | – | 53.7 | > 10000 | – | – | – |

From patent publication EP4843985A1, “TRIAZOLOPYRIMIDINE DERIVATIVE, PREPARATION METHOD THEREFOR AND USE THEREOF” (dated 2026)
